# Yeast mating assay 1: variants of the scFv Ab-14

The measurements come from Engelhart et al. 2022 (doi:10.1038/s41597-022-01779-4) through the FLAb antibody collection.

Target: peptide PDVDLGDISGINAS, taken from heptad repeat 2 (HR2) of SARS-CoV-2 spike.

Ab-14 is the parent antibody, in scFv form: VH, then a 15-residue (Gly4Ser)3 linker, then VL. The heavy chain is unchanged in all variants.
VH: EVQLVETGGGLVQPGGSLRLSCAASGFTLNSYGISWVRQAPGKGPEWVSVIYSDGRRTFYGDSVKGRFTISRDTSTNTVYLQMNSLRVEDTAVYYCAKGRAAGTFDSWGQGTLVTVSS
VL: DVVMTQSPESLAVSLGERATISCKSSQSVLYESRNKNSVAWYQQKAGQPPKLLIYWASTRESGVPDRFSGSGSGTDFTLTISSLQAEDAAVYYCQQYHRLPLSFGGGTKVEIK

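The starting antibody came from a phage panning campaign against this peptide. In library AAYL50, one, two or three CDR residues were substituted; doubles and triples were drawn at random. In AlphaSeq, yeast of one mating type display the scFv and yeast of the other type display the target. After mating in shaken culture at 30 °C for 16 h, diploids were selected and their barcode pairs sequenced. Scores were corrected for input abundance and mapped to Kd with protein pairs of known affinity run in the same pool. Mating was done three times.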

Variants are written as CDR1, CDR2 and CDR3 of the light chain (limits as in the source). Parent: KSSQSVLYESRNKNSVA, WASTRES, QQYHRLPLS. Affinities are written as log10 Kd with Kd in nM; a lower number is a better binder. "ND" marks a missing value. The strain was present, yet no cells mated with the target were sequenced in that replicate, which points to weak or no binding.

CDR-L1,CDR-L2,CDR-L3,log10 Kd (nM) by replicate,control signals
KSSESVLYESRNKNSVA,WASTRES,QQYHRHPPS,ND / 4.45 / 5.54,2 of 9 (3.66)
KSSQSENYESRNKNSVA,WASTRES,QQYHRLPHS,ND / ND / 4.10,5 of 9 (4.55)
KSSQSVLYESRNKNSVA,GASTVES,QQYHRLPRS,ND / ND / ND,0 of 9
LSSQSVRYESRNKNSRA,WASTRES,QQYHRLPLS,ND / ND / ND,2 of 9 (4.53)
KSSQSVLYESRFLNSVA,WASTRES,QQYIRLPLS,2.07 / 1.71 / 2.29,0 of 9
KSSQSVLYESRNKNSVA,WASTRHS,QQDHRLYLS,ND / 4.10 / ND,3 of 9 (4.01)
KSSQAVLYISRNKNSSA,WASTRES,QQYHRLPLS,5.06 / 4.12 / ND,3 of 9 (4.95)
KSSQSELYESRNKNSVA,WHSTRES,QQYHRLMLS,ND / ND / ND,1 of 9 (3.14)
KSSQSVAYESRNKNTVA,WASTRES,QQYQRLPLS,2.98 / 2.87 / 2.74,1 of 9 (3.34)
KSPQSVLYESRNKNSVA,WNSTRWS,QQYHRLPLS,4.51 / 3.92 / ND,2 of 9 (3.86)
KSSQSVLYESRNKNSVA,NAFTRES,FQYHRLPLS,5.08 / ND / 4.45,3 of 9 (4.22)
KSSQSVIYESRNKNSVA,WASTLES,QQYPRLPLS,ND / ND / ND,2 of 9 (4.45)
KSSQSVVYESRNKNSVA,WASTRES,QQYWRLFLS,ND / 4.46 / ND,1 of 9 (4.66)
KSYKQVLYESRNKNSVA,WASTRES,QQYHRLPLS,2.82 / 3.63 / ND,0 of 9
KSSPSVLYESRIKNSVA,HASTRES,QQYHRLPLS,-0.03 / 0.27 / 0.15,5 of 9 (4.28)
KSSQKVLYESRNKNSVA,NASTRES,QQYHRLPLI,-0.02 / 0.27 / 0.17,2 of 9 (4.37)
KSSQSVLYESMNKNSVA,WSCTRES,QQYHRLPLS,2.71 / 2.50 / 2.44,0 of 9
KSSQSVLYVSRNKNSVG,WASTRYS,QQYHRLPLS,ND / ND / ND,0 of 9
KSSYSVLYESRNKNGVA,WGSTRES,QQYHRLPLS,1.96 / 2.19 / 2.67,0 of 9
KMSQSVLYESRNKNSVA,NASTRES,QQYHRLPGS,5.69 / 4.75 / ND,4 of 9 (4.02)
KSSQSVLYESRNKNSVR,WASTALS,QQYHRLPLS,ND / ND / ND,0 of 9
KSSQAVLYESRNSNSVA,YASTRES,QQYHRLPLS,0.47 / 0.78 / 0.46,2 of 9 (4.83)
KSSQSVLYESRNLNSGA,WARTRES,QQYHRLPLS,ND / ND / ND,4 of 9 (4.62)
KSLQSVLYESRNKNSVA,WADTRES,QQYHRLPLA,1.63 / 2.13 / 1.93,3 of 9 (4.53)
KSSCSNLYESRNKNSVA,WNSTRES,QQYHRLPLS,ND / ND / ND,1 of 9 (3.62)
KSSQSVVYESRNKNSVA,WASHREN,QQYHRLPLS,1.51 / 1.61 / 1.62,7 of 9 (4.67)
KSSQSVLYESRNKNSVA,WASTFES,QQYHRLPLE,ND / ND / ND,0 of 9
KSSQSVLYWSRNKNSQA,WASTRES,QQYRRLPLS,ND / 4.39 / ND,3 of 9 (4.68)
KSSQSVLYESRNKNSVH,WDFTRES,QQYHRLPLS,ND / 4.13 / ND,0 of 9
KSSQSVLYTSRSKNSVA,WASTRES,QQYHRLPRS,ND / ND / ND,3 of 9 (4.66)
KSSQSVLYESREKNSVW,WDSTRES,QQYHRLPLS,ND / ND / 3.78,3 of 9 (2.64)
KSSQSMLYESRNKNSVA,WASTRPS,QQYHRMPLS,1.03 / 1.48 / 0.71,0 of 9
KSSQSVLYEMRNKNSDA,WASTRES,QQYHRLELS,4.88 / 4.02 / ND,2 of 9 (4.50)
KSSQSVLYESRYKNSHA,WASTRES,QQYHRLDLS,ND / 3.35 / ND,2 of 9 (4.44)
KSSQSVLYESRNKNAVA,WASTRES,QYPHRLPLS,ND / ND / ND,3 of 9 (3.25)
KSSTSVLYESRNKNSVA,WASTRPS,QQEHRLPLS,ND / ND / ND,1 of 9 (3.82)
KSSISRLYESRNKNSVA,WASTRQS,QQYHRLPLS,3.06 / 2.17 / 2.64,1 of 9 (3.65)
KSSQSVLYESRNKNSVA,WASTRES,QQYHALWQS,ND / ND / ND,0 of 9
KSSQSPLYESRNKNSVA,WASTAES,QQFHRLPLS,ND / ND / ND,0 of 9
KSSQSVLYESRNKKSVA,WASTRES,QQYHRLPLS,2.06 / 2.05 / 1.35,2 of 9 (2.32)
KSSQSVLVESWNKNSVA,WAKTRES,QQYHRLPLS,2.42 / 2.02 / 2.33,3 of 9 (3.15)
KSSQSVLWESRNKNSVA,NASTRES,QQYHRLPVS,1.91 / 2.11 / 1.90,2 of 9 (4.34)
KSSQSVLYETRNMNSLA,WASTRES,QQYHRLPLS,1.48 / 1.71 / 1.61,2 of 9 (5.59)
KSSQSVLYESRNKNCVA,WASTRES,HQYHRLYLS,ND / ND / ND,0 of 9
KSSQSVLYESRCWNSVK,WASTRES,QQYHRLPLS,5.40 / ND / 5.58,2 of 9 (4.77)
KSSQSVSYESRNKNSVA,WASTRCV,QQYHRLPLS,1.68 / 1.75 / 1.70,0 of 9
KSSQSPLYESRNKNSLA,WASTRCS,QQYHRLPLS,1.65 / 1.53 / 1.92,1 of 9 (3.37)
KSSFSVKYEIRNKNSVA,WASTRES,QQYHRLPLS,1.51 / 1.93 / 1.73,1 of 9 (4.60)
KSSQSVLYESRNKNSVA,WASTRES,QWEHRLPHS,4.04 / ND / ND,1 of 9 (5.44)
KSSQFVLYESRNKNSVA,WASFREP,QQYHRLPLS,2.93 / ND / 4.65,0 of 9
KSSQSVLNESRNKNSVA,WASTRES,QQYHRHPLC,ND / ND / ND,0 of 9
KSSQSVLYISRNKNSVA,WMSTRNS,QQYHRLPLS,ND / ND / ND,1 of 9 (4.79)

For reference, 5 entries of the list once more:

CDR-L1,CDR-L2,CDR-L3,log10 Kd (nM) by replicate,control signals
KSSQSVLYESRNKNSVR,WASTALS,QQYHRLPLS,ND / ND / ND,0 of 9
KSSQSVVYESRNKNSVA,WASHREN,QQYHRLPLS,1.51 / 1.61 / 1.62,7 of 9 (4.67)
KSSQSVLYESRNKNSVA,WASTRHS,QQDHRLYLS,ND / 4.10 / ND,3 of 9 (4.01)
KSSQAVLYESRNSNSVA,YASTRES,QQYHRLPLS,0.47 / 0.78 / 0.46,2 of 9 (4.83)
KSSQSMLYESRNKNSVA,WASTRPS,QQYHRMPLS,1.03 / 1.48 / 0.71,0 of 9

Empty control strains, which show no peptide, gave a signal in 18% of pairings with library AAYL50; the median was 4.19 and 95% of these signals were weaker than 2.99. No background was subtracted. For each scFv, signals with the empty controls are counted beside the result, with their mean in brackets. For reference, the parent read 0.65 as the reference entry and 1.68 as a member of this library.